Measurements from patent US8729047B2, “Compositions for inhibiting redox-sensitive GTPases” (Board of Regents, The University of Texas System, priority 2010, dated 2014).

Test system: A7r5 cells
Assay: Viability / cytotoxicity of A7r5 cells
Format: cell-based, rat
Text: FIG. 24. Effects of 6- and 8-TG on A7r5 cells. Treatment of cells with 6- or 8-TG is described in FIGS. 19 and 21. The image associated with the effect of 6- or 8-TG was taken after 5 days of treatment.

## Nc1nc2nc[nH]c2c(=S)[nH]1 [6-TG, 6-thioguanine]
6-TG-mediated apoptosis in slow-growing cells
  cytotoxicity, change in cell viability: ≤ 5%
5 days of treatment, FIG. 24
  viability / cytotoxicity of A7r5 cells: minimal cytotoxicity
